Values of other authors in patent US20090178587A9, “Control of biofilms in industrial water systems” (priority 2001, published 2009).

Tests used:
[1] = system: biofilm bacteria; details: 4-day period; chlorine 0-5 ppm residual, bromine 0-2 ppm residual; cited from earlier work
[2] = system: sessile bacteria; details: cited from earlier work

## chlorine
[1]
  log reductions of biofilm bacteria: about 4 log
[2]; continuous chlorine residual of 0.4 ppm
  biofilm counts after treatment: about 102 bacteria/in^2
[2]; pH 9, H2O2 2-3 ppm continuous, glutaraldehyde or THPS 50 ppm, chlorine 0.4 ppm continuous residual
  log reductions in sessile bacteria / biofilm counts: 5 log
